# ChEMBL document CHEMBL1145498, “A systematic interaction map of validated kinase inhibitors with Ser/Thr kinases” (Proc Natl Acad Sci U S A, 2007)
# The chains behind the UniProt entries cited, without tags or fusion partners. Where a name states a change or a piece, a line headed by the entry shows the natural chain unless it says otherwise. A line that says so, or that is headed by a name, gives the form on record, which may keep a tag or linker.
# UniProt P13569, as listed by the source: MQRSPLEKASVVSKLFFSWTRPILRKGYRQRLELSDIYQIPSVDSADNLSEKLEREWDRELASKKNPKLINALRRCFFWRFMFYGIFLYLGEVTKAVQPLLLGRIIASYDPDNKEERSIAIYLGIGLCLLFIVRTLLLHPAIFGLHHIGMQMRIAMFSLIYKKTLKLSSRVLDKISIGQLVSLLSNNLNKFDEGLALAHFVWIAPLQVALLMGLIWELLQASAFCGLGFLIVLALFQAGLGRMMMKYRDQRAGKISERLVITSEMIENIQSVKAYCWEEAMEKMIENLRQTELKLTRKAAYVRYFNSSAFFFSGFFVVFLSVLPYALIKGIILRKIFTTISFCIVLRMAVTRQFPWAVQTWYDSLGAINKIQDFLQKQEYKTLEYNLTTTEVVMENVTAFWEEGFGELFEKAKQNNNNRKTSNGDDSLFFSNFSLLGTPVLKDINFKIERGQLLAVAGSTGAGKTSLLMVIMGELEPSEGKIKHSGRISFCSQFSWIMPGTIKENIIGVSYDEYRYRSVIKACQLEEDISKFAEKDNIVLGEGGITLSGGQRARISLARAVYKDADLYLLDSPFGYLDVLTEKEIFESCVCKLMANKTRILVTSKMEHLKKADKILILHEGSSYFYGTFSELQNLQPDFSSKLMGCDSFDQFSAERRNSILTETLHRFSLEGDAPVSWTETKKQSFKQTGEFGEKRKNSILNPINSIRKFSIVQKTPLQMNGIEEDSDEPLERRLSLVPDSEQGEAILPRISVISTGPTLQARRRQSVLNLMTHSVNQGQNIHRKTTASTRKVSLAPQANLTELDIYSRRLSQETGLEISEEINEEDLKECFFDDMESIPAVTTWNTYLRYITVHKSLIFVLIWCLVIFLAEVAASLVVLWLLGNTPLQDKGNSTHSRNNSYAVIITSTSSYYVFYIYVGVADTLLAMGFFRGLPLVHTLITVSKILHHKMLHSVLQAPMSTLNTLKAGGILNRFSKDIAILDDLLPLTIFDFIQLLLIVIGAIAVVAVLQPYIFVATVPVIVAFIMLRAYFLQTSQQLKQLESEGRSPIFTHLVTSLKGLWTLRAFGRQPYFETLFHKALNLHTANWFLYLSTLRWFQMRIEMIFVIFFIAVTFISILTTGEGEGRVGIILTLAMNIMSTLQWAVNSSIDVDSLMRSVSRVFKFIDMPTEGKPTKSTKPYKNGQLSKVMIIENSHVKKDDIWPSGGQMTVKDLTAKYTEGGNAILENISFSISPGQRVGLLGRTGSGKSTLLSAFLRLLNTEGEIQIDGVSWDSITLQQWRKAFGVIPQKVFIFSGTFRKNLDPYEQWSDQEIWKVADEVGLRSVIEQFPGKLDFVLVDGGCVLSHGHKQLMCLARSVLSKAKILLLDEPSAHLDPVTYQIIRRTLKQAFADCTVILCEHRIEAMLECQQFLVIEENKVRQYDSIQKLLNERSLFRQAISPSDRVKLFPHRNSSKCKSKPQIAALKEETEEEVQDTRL
# UniProt P49840: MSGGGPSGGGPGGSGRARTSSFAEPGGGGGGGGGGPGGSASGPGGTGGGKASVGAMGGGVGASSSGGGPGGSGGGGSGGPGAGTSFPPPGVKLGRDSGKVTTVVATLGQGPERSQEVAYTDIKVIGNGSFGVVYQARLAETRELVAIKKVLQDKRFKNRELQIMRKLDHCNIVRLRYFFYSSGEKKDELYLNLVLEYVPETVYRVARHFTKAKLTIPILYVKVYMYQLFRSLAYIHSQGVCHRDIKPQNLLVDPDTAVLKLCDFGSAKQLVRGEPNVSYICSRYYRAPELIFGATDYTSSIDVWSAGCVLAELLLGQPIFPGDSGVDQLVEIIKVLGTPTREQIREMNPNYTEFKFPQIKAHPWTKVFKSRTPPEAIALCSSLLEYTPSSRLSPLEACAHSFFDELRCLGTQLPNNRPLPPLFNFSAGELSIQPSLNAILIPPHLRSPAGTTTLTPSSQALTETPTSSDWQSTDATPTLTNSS
# Key:
# [1] = molecular target: Cystic fibrosis transmembrane conductance regulator (Homo sapiens, UniProt P13569, F508DEL); experiment: Activity at human wild type CFTR expressed in F508del-CF1 cells assessed as forskolin stimulated iodide flux; type: cell-based
# [2] = molecular target: Glycogen synthase kinase-3 alpha (Homo sapiens, UniProt P49840)
# [3] = Inhibition of p34cdc2/cyclin B
Compound,EC50 [1] [nM],IC50 [2] [nM],IC50 [3] [nM]
CCCCc1c(-c2ccc(O)cc2)[nH]c2nccnc12 [ALOISINE A],111,1500,
CC(C)[C@H](CO)Nc1nc(Nc2cccc(Cl)c2)c2ncn(C(C)C)c2n1 [PURVALANOLA],,,4
